In patent US20250353891A1 (MEDIMMUNE LIMITED, priority 2022, published 2025):
Starred links: 1 amine or outer side, 2 acyl side, 3 side chain; linkers in the order of their positions; H or OH if unused. Non-standard residues stand in square brackets, D forms with d. Residues, ends and D or L forms follow the SMILES beside them. Groups on a side chain read outwards from the residue. *: point of attachment. C20 diacid = O=C(O)CCCCCCCCCCCCCCCCCCC(=O)*; γGlu = O=C(O)[C@H](CCC(=O)[*:2])N[*:1]; αMeF = C[C@](N)(Cc1ccccc1)C(=O)O; AEEA = NCCOCCOCC(=O)O; Aib = CC(C)(N)C(=O)O

By UniProt entry, the sequences of proteins in these tests, tags left out. Residues count along the entry.
UniProt P47871, 26-477: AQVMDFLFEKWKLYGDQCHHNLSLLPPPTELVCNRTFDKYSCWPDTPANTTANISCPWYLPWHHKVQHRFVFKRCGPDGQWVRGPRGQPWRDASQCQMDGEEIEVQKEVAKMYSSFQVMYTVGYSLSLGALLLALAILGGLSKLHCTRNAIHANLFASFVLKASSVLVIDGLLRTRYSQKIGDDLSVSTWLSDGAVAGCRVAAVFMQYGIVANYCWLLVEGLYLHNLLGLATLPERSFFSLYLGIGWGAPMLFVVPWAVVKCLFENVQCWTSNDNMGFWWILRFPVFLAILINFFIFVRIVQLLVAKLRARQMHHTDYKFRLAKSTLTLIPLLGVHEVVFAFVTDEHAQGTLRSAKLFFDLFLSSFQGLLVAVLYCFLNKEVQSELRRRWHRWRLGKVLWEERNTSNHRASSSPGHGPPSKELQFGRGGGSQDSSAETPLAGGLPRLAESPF
UniProt P43220, 24-463: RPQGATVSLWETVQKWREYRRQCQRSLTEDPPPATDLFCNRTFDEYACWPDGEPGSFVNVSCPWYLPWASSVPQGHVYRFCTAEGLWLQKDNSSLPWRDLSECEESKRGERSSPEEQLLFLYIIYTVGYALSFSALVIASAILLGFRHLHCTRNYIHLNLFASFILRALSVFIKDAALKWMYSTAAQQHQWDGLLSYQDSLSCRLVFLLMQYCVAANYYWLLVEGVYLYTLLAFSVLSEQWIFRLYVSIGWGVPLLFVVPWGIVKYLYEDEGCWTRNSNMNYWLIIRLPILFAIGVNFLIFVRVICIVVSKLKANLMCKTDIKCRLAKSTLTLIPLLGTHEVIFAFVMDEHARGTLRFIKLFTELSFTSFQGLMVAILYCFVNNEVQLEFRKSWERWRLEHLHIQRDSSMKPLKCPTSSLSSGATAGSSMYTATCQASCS

Experiments:
[1] = biological target: human glucagon receptor (hGCGR) (Homo sapiens, UniProt P47871); assay: cAMP production (HTRF) in CHO cells expressing hGCGR; assay type: cell-based; parameters: expressed in transfected cells; details: hGluc-R EC50 (pM)
Protocol: (§1) Cells were re-suspended in assay buffer at a batch-dependent optimized concentration (typically hGLP-1R cells at 1×10^5 cells/mL, hGCGR cells at 2×10^5 cells/mL).
(§2) Cells were added to the assay plate using a multidrop dispenser and incubated at room temperature for 30 minutes before measuring the cAMP level using a cAMP dynamic 2 homogeneous time resolved Fluorescence (HTRF) kit (Cisbio Bioassays #62AM4PEJ) following the two-step protocol as per manufacturer's recommendations. In brief, anti-cAMP cryptate (donor fluorophore) and cAMP-d2 (acceptor fluorophore) were made up separately by diluting each 1 in 20 in conjugate and lysis buffer provided in the kit. Anti-CAMP cryptate was added to all wells of the assay plate, followed by cAMP-d2 added to all wells except non-specific binding (NSB) wells (to which conjugate and lysis buffer was added).
(§3) Data was transformed to % Delta F as described in the manufacturer's guidelines and analyzed by 4-parameter logistic fit to determine EC50 values.

[2] = Pharmacokinetic profiling in non-human primate (i.v., s.c.); details: cynomolgus monkey, in vivo, iv, 10 nmol/kg
Source text: (§4) Selected test peptides (n=8) were profiled for pharmacokinetic (PK) properties in the mouse after single intravenous (i.v.) or subcutaneous (s.c.) dose. A subset (n=4) meeting the acceptance criteria was subsequently profiled in the dog (single i.v. dose) and non-human primate (single i.v. and s.c. dose). […] Low-binding plasticware containers were used during preparation and sample handling to avoid non-specific binding.
Non-human primate: PK was studied in non-naïve male cynomolgus monkeys. After dosing, PK samples were collected from the femoral vein. Blood of each sample was transferred into plastic micro centrifuge tubes containing EDTA-K2, inverted several times for proper mixing of contents and then placed on wet ice. […]
(§5) Samples analysis: Samples were analyzed by LC-MS/MS. Calibration standards were injected at the beginning and end of each batch and the determined concentration for each prepared standard was used to construct a calibration curve. Plasma and dose aliquot sample concentrations were determined from the plasma calibration curve.
Data analysis: Plasma concentration data was analyzed by non-compartmental analysis (NCA) using Phoenix Winnonlin v. […] Subcutaneous bioavailability was calculated as the ratio AUC(s.c.)0-inf/AUC(i.v.)0-inf. […]

[3] = biological target: human GLP-1 receptor (hGLP-1R) (Homo sapiens, UniProt P43220); assay: cAMP production (HTRF) in CHO cells expressing hGLP-1R; assay type: cell-based; parameters: expressed in transfected cells; details: for % Relative Potency Ratio: % GLP-1R activity relative to GLP-1 / % GlucR activity relative to glucagon; for EC50: hGLP-1R EC50 (pM)
Protocol: as §1, §2, §3

[4] = Pharmacokinetic profiling in dog (i.v.); details: in vivo, iv, 10 nmol/kg
Source text: as §4
Blood of each sample was transferred into plastic micro centrifuge tubes containing EDTA-K2, inverted several times for proper mixing of contents and then placed on wet ice.
as §5
Data analysis: Plasma concentration data was analyzed by non-compartmental analysis (NCA) using Phoenix Winnonlin v. 8.3.3.33. Linear trapezoidal rule was used for increasing values and log trapezoidal rule was used for decreasing values, applying uniform weighting for lambda_z calculations. Subcutaneous bioavailability was calculated as the ratio AUC(s.c.)0-inf/AUC(i.v.)0-inf. Reported values (Table 18) represent the mean of the individual estimates.

Structure (SMILES)	EC50 ([1]; Table 6, peptides modified at position 17, geometric mean) [pM]	half-life [2] [h]	% Relative Potency Ratio ([3]; Table 6)	EC50 [3] [pM]	half-life [4] [h]	EC50 ([1]; Table 7, peptides modified at position 20, geometric mean) [pM]	% Relative Potency Ratio ([3]; Table 7)
CC(C)C[C@H](NC(=O)[C@H](Cc1c[nH]c2ccccc12)NC(=O)[C@H](CCC(N)=O)NC(=O)[C@@H](NC(=O)[C@H](Cc1ccccc1)NC(=O)[C@H](CC(=O)O)NC(=O)[C@H](CCCNC(=N)N)NC(=O)[C@H](C)NC(=O)[C@H](CCCNC(=N)N)NC(=O)[C@H](CCCCNC(=O)COCCOCCNC(=O)COCCOCCNC(=O)CC[C@H](NC(=O)CCCCCCCCCCCCCCCCCCC(=O)O)C(=O)O)NC(=O)[C@@H](NC(=O)[C@H](CC(=O)O)NC(=O)[C@H](CC(C)C)NC(=O)[C@](C)(Cc1ccccc1)NC(=O)[C@H](CCCCN)NC(=O)[C@H](CO)NC(=O)[C@@H](NC(=O)[C@H](CC(=O)O)NC(=O)[C@H](CO)NC(=O)[C@@H](NC(=O)[C@H](Cc1ccccc1)NC(=O)[C@@H](NC(=O)CNC(=O)[C@H](CCC(N)=O)NC(=O)C(C)(C)NC(=O)[C@@H](N)Cc1c[nH]cn1)[C@@H](C)O)[C@@H](C)O)C(C)C)[C@@H](C)O)C(C)C)C(=O)N[C@@H](CC(C)C)C(=O)N[C@@H](CCC(=O)O)C(=O)NC(C)(C)C(=O)NCC(=O)O [Peptide 195, H-Aib-Q-G-T-F-T-S-D-V—S-K-αMePhe-L-D-T-K-R-A-R-D-F-V-Q-W-L-L-E-Aib-G-acid]	94.6	49	2.2	86	78	–	–
CC[C@H](C)[C@H](NC(=O)C(C)(C)NC(=O)[C@H](CCC(N)=O)NC(=O)[C@@H](NC(=O)[C@H](Cc1ccccc1)NC(=O)[C@H](CC(=O)O)NC(=O)[C@H](CCCCNC(=O)COCCOCCNC(=O)COCCOCCNC(=O)CC[C@H](NC(=O)CC[C@H](NC(=O)CCCCCCCCCCCCCCCCCCC(=O)O)C(=O)O)C(=O)O)NC(=O)[C@H](C)NC(=O)[C@H](C)NC(=O)[C@H](CCCNC(=N)N)NC(=O)[C@H](CO)NC(=O)[C@H](CC(=O)O)NC(=O)[C@H](CC(C)C)NC(=O)[C@](C)(Cc1ccccc1)NC(=O)[C@H](CCCCN)NC(=O)[C@H](CO)NC(=O)[C@@H](NC(=O)[C@H](CC(=O)O)NC(=O)[C@H](CO)NC(=O)[C@@H](NC(=O)[C@](C)(Cc1ccccc1)NC(=O)[C@H](CO)NC(=O)CNC(=O)[C@H](Cc1c[nH]cn1)NC(=O)C(C)(C)NC(=O)[C@@H](N)Cc1c[nH]cn1)[C@@H](C)O)C(C)C)C(C)C)C(=O)N[C@@H](C)C(=O)N[C@@H](CC(N)=O)C(=O)N[C@H](C(=O)NCC(=O)NCC(N)=O)[C@@H](C)O [Peptide 235] (H-H[Aib]HGS[αMeF]TSDVSK[αMeF]LDSRAAK([AEEA-AEEA-γGlu-γGlu-C20 diacid])DFVQ[Aib]IANTGG-NH2; N-terminus assumed)	–	–	–	94.8	–	1260	26.3
